Measurements as given in paper PMC10215400, “The Effectiveness of Imipenem–Relebactam against Ceftazidime-Avibactam Resistant Variants of the KPC-2 β-Lactamase” (Antibiotics, 2023).

Amino acid sequences for entries named in this document (tags omitted). Residues count along the entry.
UniProt Q93LQ9, 25-293 D178N: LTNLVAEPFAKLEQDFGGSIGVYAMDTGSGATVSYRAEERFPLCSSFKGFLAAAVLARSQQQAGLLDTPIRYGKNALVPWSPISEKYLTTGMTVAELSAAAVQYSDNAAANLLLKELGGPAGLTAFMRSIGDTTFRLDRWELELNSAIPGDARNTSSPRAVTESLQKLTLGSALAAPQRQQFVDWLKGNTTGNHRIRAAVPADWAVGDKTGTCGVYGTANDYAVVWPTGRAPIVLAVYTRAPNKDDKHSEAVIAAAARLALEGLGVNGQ
UniProt Q93LQ9, 25-293 D178Y: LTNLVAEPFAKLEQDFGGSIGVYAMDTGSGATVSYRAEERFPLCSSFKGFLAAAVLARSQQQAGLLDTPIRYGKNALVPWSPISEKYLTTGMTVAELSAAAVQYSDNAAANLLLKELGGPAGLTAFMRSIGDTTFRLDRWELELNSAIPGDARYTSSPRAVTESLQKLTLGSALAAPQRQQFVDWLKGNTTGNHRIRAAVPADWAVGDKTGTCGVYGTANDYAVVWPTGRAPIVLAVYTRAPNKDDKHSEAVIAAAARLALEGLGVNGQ

Assays:
[1] = target: KPC-2 β-lactamase D179N variant (Klebsiella pneumoniae, UniProt Q93LQ9, D178N); assay: stopped-flow hydrolysis progress curves with purified enzyme; timed mass spectrometry; type: biochemical
[2] = target: KPC-2 β-lactamase D179Y variant (Klebsiella pneumoniae, UniProt Q93LQ9, D178Y); assay: time-based mass spectrometry of acyl-complex ([…]); stopped-flow hydrolysis; type: binding

`CC(C)(O/N=C(\C(=O)N[C@@H]1C(=O)N2C(C(=O)[O-])=C(C[n+]3ccccc3)CS[C@H]12)c1csc(N)n1)C(=O)O` [ceftazidime] was tested, and the “stopped-flow hydrolysis progress curves with purified enzyme; timed mass spectro” value [1] was “Conversely, all three β-lactamases hydrolyzed ceftazidime” and the “time-based mass spectrometry of acyl-complex (1:50); stopped-flow hydrolysis” value [2] was “acyl-complexes with imipenem and ceftazidime with the D179N variant was captured less often compared to the D179Y variant”.
